Experimental data: ChEMBL document CHEMBL1154594, “Delta agonist hydroxy bioisosteres: the discovery of 3-((1-benzylpiperidin-4-yl){4-[(diethylamino)carbonyl]phenyl}amino)benzamide with improved delta agonist activity and in vitro metabolic stability” (Bioorg Med Chem Lett, 2009)

The chains behind the UniProt entries cited, without tags or fusion partners.
UniProt P41145, whole entry: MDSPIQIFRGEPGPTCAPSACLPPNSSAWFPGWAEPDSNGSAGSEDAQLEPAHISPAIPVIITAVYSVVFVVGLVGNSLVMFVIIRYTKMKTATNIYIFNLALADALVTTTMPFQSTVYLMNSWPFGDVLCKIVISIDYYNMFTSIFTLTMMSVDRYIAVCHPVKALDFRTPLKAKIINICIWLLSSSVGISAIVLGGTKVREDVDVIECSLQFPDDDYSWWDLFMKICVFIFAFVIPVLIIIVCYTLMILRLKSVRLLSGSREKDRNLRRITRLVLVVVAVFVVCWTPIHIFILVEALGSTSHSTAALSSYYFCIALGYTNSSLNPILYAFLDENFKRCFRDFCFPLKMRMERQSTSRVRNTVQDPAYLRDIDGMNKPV
UniProt P35372, whole entry: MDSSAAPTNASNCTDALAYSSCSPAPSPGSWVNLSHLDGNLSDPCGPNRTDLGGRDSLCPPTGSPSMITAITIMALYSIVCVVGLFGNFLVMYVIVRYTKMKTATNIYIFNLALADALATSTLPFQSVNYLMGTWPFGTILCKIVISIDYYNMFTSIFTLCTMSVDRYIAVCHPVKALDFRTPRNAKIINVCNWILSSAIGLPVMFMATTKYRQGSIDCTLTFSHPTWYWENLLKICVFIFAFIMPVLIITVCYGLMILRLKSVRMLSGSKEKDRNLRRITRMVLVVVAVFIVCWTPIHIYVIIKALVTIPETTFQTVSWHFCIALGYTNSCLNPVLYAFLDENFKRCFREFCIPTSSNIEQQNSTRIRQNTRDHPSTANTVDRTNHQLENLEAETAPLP

Legend:
[1] = target: Kappa-type opioid receptor (Homo sapiens, UniProt P41145); assay: Displacement of [125I]D-pro10-dynorphin from human cloned kappa opioid receptor
Mu-type opioid receptor = Mu-type opioid receptor (Homo sapiens, UniProt P35372); assay: Displacement of [125I]FK33824 from human cloned mu opioid receptor

Row | SMILES | Ki [1] | Ki (Mu-type opioid receptor)
1 | CCN(CC)C(=O)c1ccc(N(c2cccc(NC(=O)OC)c2)C2CCN(Cc3ccccc3)CC2)cc1 | 0.576 µM | 0.075 µM
2 | CCN(CC)C(=O)c1ccc(N(c2cccc(CN(C)C)c2)C2CCN(Cc3ccccc3)CC2)cc1 | 1.75 µM | 4.16 µM
3 | CCN(CC)C(=O)c1ccc(N(c2cccc(CO)c2)C2CCN(Cc3ccccc3)CC2)cc1 | 6.67 µM | 3.81 µM
4 | CCN(CC)C(=O)c1ccc(N(c2cccc(O)c2)C2CCN(Cc3ccccc3)CC2)cc1 | 0.744 µM | 0.088 µM
5 | CCN(CC)C(=O)c1ccc(N(c2cccc(NC(C)=O)c2)C2CCN(Cc3ccccc3)CC2)cc1 | > 10 µM | 1.02 µM
6 | CCN(CC)C(=O)c1ccc(N(c2cccc(C(=O)NC)c2)C2CCN(Cc3ccccc3)CC2)cc1 | > 10 µM | 4.71 µM
7 | CCN(CC)C(=O)c1ccc(N(c2cccc(C=O)c2)C2CCN(Cc3ccccc3)CC2)cc1 | 4.8 µM | 1.19 µM
8 | CCN(CC)C(=O)c1ccc(N(c2cccc(C(C)O)c2)C2CCN(Cc3ccccc3)CC2)cc1 (configuration not stated) | 4.74 µM | 3.75 µM
9 | CCN(CC)C(=O)c1ccc(N(c2ccccc2C(N)=O)C2CCN(Cc3ccccc3)CC2)cc1 | > 10 µM | 5.04 µM
10 | CCN(CC)C(=O)c1ccc(N(c2cccc(C(C)=O)c2)C2CCN(Cc3ccccc3)CC2)cc1 | 4.54 µM | 1.54 µM
11 | CCN(CC)C(=O)c1ccc(N(c2cccc(CN)c2)C2CCN(Cc3ccccc3)CC2)cc1 | 2.93 µM | 0.831 µM
12 | CCN(CC)C(=O)c1ccc(N(c2cccc(C(N)=O)c2)C2CCN(Cc3ccccc3)CC2)cc1 | 0.725 µM | 0.282 µM
13 | CCN(CC)C(=O)c1ccc(N(c2cccc(N)c2)C2CCN(Cc3ccccc3)CC2)cc1 | 4.25 µM | 2.88 µM
14 | CCN(CC)C(=O)c1ccc(N(c2cccc(NS(C)(=O)=O)c2)C2CCN(Cc3ccccc3)CC2)cc1 | 3.56 µM | 0.462 µM
15 | CCN(CC)C(=O)c1ccc(N(c2ccc(C(N)=O)cc2)C2CCN(Cc3ccccc3)CC2)cc1 | 6.18 µM | 0.486 µM
16 | CCN(CC)C(=O)c1ccc(N(c2cccc(C(=O)OC)c2)C2CCN(Cc3ccccc3)CC2)cc1 | 5.54 µM | 7.1 µM
